Measurements as given in US12357680B2, “Inhibition of histone methyl transferases to treat cancer” (Albert-Ludwigs-Universitat Freiburg, priority 2018, dated 2025).

The chains behind the UniProt entries cited, without tags or fusion partners.
UniProt O96028, whole entry T1150A: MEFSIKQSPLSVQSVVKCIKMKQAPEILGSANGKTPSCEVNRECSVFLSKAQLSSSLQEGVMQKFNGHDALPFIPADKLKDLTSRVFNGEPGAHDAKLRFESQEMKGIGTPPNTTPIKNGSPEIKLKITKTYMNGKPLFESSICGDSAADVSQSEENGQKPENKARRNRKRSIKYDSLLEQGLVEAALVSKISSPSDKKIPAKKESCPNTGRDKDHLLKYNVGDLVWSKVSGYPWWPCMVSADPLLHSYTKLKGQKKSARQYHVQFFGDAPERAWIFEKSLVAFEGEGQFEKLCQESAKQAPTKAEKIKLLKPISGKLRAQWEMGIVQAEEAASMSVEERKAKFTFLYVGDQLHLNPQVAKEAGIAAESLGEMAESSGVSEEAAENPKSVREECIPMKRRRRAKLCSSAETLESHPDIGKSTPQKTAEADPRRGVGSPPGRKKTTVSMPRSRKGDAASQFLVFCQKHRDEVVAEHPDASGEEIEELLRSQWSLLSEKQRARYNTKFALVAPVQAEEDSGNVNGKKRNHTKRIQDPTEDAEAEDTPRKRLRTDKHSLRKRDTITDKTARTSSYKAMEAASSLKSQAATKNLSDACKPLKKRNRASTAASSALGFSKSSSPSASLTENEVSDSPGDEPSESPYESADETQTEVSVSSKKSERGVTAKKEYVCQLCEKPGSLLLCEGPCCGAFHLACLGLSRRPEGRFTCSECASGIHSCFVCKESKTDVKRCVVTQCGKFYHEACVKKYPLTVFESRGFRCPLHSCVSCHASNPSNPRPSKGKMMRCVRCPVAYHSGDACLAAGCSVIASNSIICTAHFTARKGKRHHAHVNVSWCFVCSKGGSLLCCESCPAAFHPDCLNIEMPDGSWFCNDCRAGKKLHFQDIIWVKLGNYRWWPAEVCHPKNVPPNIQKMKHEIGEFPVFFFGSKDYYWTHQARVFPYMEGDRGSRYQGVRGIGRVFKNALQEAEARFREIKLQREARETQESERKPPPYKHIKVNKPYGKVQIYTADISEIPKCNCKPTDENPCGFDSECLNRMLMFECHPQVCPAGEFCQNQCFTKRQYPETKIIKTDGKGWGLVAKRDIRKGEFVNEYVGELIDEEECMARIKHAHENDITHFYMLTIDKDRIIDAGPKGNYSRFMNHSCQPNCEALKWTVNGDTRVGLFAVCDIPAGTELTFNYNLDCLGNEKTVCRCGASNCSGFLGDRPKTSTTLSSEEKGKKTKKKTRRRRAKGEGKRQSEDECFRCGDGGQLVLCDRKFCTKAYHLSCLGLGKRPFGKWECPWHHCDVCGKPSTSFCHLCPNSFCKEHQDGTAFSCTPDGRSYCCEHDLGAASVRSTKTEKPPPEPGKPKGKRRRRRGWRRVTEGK
UniProt O96028, whole entry E1099K: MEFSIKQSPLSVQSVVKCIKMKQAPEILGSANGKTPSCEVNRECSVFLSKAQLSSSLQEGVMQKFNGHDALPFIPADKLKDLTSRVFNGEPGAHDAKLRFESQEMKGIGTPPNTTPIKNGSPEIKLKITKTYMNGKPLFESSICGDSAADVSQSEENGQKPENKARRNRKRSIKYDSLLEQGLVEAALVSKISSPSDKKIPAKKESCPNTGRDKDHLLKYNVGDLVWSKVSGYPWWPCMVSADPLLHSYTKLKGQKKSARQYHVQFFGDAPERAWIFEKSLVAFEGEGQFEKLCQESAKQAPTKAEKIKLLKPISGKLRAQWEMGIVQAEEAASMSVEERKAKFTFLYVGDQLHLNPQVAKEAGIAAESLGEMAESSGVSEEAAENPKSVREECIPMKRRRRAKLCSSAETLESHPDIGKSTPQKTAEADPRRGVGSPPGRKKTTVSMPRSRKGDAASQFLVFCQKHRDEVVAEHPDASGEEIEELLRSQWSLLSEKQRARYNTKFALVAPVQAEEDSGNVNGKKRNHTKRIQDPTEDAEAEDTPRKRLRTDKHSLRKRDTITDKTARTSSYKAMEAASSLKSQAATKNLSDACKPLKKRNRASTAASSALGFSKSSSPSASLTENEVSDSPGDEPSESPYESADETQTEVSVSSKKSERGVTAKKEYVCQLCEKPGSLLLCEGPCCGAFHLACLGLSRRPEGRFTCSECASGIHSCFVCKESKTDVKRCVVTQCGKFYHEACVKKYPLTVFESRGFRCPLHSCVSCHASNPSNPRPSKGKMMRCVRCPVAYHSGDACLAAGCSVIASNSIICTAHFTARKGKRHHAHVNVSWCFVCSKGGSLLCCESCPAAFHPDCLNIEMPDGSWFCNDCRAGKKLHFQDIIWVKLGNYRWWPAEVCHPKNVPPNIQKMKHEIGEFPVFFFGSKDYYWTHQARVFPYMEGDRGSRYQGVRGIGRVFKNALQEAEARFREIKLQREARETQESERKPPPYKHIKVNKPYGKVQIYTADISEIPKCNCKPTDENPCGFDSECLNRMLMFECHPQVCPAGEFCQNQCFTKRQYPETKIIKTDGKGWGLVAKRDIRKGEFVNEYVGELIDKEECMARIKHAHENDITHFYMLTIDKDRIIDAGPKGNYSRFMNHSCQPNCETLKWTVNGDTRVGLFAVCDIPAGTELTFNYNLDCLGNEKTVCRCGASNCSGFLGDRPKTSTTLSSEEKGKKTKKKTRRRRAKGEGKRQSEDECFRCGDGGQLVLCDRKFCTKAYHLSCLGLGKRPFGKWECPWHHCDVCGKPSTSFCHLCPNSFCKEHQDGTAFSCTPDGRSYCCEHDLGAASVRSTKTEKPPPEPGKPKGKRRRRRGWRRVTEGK

Assays:
Assay in all cases: Methyltransferase panel, 10-dose IC50 mode
Format in all cases: biochemical
NSD2 (T1150A) = NSD2 (T1150A) (Homo sapiens (Human), UniProt O96028, T1150A)
NSD2 = NSD2 (Homo sapiens (Human), UniProt O96028)
NSD2 (E1099K) = NSD2 (E1099K) (Homo sapiens (Human), UniProt O96028, E1099K)

Nc1ncnc2c1ncn2[C@@H]1O[C@H](CSCC[C@H](N)C(=O)O)[C@@H](O)[C@H]1O [SAH, S-(5′-Adenosyl)-L-homocysteine]
IC50 (NSD2 (T1150A)): 1.44 µM
IC50 (NSD2): 3.05 µM
IC50 (NSD2 (E1099K)): 1.57 µM
